This note sets out measurements from patent US12472261B2, “Conjugated inhibitors of DNA damage response” (ProLynx LLC, priority 2019, dated 2025).

The conditions of this series: buffer, 37° C., after one week.

In the case of “MeO-PEG20kDa-DBCO triazole of 6-azidohexyl N-(2-methoxyethyl)-N-(methylene-olaparib) carbamate”, the free olaparib observed result is “no free olaparib was observed”.
